ALR H2O2 inh: human ALR oxidase inhibition via reduced H2O2; purified ALR, DTT oxidation, H2O2 HRP-luminol luminescence; P55789; 290,000 tested, 3.8% active; AID 485317; inhibition, % (no concentration beside the values);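 active means mean and each replicate at 75% or more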;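 further: stock transfer was 7.5 nL into about 7.5 µL; 0% = neutral wells and 100% = wells with inactivated enzyme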
MC4R barr agon: MC4R agonists recruiting beta-arrestin, primary screen, cell-based, luminescence, agonist arm of biased-ligand search. Melanocortin receptor 4 (Homo sapiens), P32245. U2OS MC4R beta-arrestin complementation; percent of melanotan II response, DMSO zero. activation, % at 8.9 µM. actives 0.98% (n = 360,000). AID 540308, 2011;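 active = activation above a per-plate cutoff, the mean activation of sample wells on that plate plus 3 SD, cut at about 8% in these data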
HDAC3 inh: HDAC3 deacetylase inhibitors, primary screen, biochemical, fluorescence, cell-free homogeneous | inhibition, % at 8.3 µM | recombinant HDAC3, fluorogenic peptide/trypsin coupled | actives 0.15% (n = 320,000) | Histone deacetylase 3 (Homo sapiens), O15379; in the data active = inhibition above about 26%, passing the limit was not always enough; inconclusive = no clear call, values can overlap the other calls
NALP1 yeast inh: NALP1 inflammasome inhibitors in reconstituted yeast, colorimetric, S. cerevisiae, triplicate retest; inhibition, % at 10 µM; S. cerevisiae NALP1/ASC/caspase-1 growth, X-gal OD620, 72 h; actives 0.61% (n = 280,000); in the data active = inhibition mostly above about 24%, no sharp cut-off; inactive = mostly below about 32%
UUG fidelity: modulators of start codon recognition fidelity in yeast; AID 602363; activity score, % at 18.7 µM; S. cerevisiae UUG-firefly luciferase reporter, luminescence/redox ratio; actives 0.13% (n = 350,000);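 active = replicate mean at a twofold rise or more, about +100% in these data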;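 note: firefly luciferase made from a UUG start codon reports start codon fidelity; reporter light over untreated wells divided by growth signal over untreated wells; some hits fall short of that in this replicate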
MC4R antag cAMP: MC4R antagonists of cAMP signaling, primary screen, cell-based, TR-FRET, antagonist arm of biased-ligand search | actives 0.48% (n = 360,000) | MC4R-expressing cells, MTII-stimulated cAMP, LANCE TR-FRET | inhibition, % at 6.5 µM | AID 540295, 2011;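 active = inhibition above its plate's cutoff, the mean of tested wells on that plate plus 3 SD, cut at about 29% in these data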;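 also: 0% = Melanotan II alone and 100% = Melanotan II plus saturating MCL0020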
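Assay system: human MC4R-expressing U2OS cells; reagent: Melanotan II stimulation of cells; dosing: 6.5 µM single dose; timing: compound 30 min, challenge 1 h, detection 1 h; signal: TR-FRET cAMP assay; replicates: one well per compound, no replicates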
The depositor's hits bear a star; u = inconclusive; x = no result. Shown are actives, neighbours in structure and some others; about 4.2% of the full set was active somewhere.

The chains behind the UniProt entries cited, without tags or fusion partners.
Melanocortin receptor 4 (Homo sapiens), P32245, UniProt P32245, whole entry, looked up: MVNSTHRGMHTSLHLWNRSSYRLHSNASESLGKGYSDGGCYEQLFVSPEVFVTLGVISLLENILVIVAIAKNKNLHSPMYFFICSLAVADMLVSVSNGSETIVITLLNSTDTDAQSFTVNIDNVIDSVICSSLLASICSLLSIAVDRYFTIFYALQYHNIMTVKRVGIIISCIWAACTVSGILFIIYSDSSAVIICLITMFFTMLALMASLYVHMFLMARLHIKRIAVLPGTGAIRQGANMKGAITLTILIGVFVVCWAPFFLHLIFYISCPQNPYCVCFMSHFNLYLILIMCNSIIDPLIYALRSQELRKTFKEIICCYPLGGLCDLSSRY

SMILES | ALR H2O2 inh | MC4R barr agon | HDAC3 inh | NALP1 yeast inh | UUG fidelity | MC4R antag cAMP
CCCNC(=O)N(C)C[C@H]1Oc2ncc(C#CC3(O)CCCC3)cc2C(=O)N([C@@H](C)CO)C[C@@H]1C | x | x | x | x | 3 | x
COC(=O)c1ccccc1N=Nc1c(N)n[nH]c1N | 91* | 0 | 4 | 2 | x | -17
O=C(NC1CCC1)[C@@H]1[C@@H](CO)[C@@H]2Cn3c(ccc(-c4ccccc4)c3=O)[C@@H]2N1Cc1ccccn1 | x | x | x | x | 26 | x
c1ccc(Nc2cccc(Nc3ccccc3)n2)cc1 | 99* | 2 | 13 | 18 | -3 | 18
C#CC(=O)N(c1cccc(OC)c1)C(C(=O)NC1CCCC1)c1cccs1 (stereo unspecified) | 9 | 8 | -3 | -1 | -3 | 35*
COc1ccc(N(C(=O)c2ccco2)C(C(=O)NC2CCCC2)c2cccs2)c(OC)c1 (stereo unspecified) | -5 | 0 | 7 | 4 | -2 | 27
Cc1noc(C)c1NC(=O)N[C@H]1C=C[C@@H](CC(=O)N2CCN(C)CC2)O[C@@H]1CO | x | x | x | x | -10 | x
CC(=O)Nc1ccc(S(=O)(=O)Nc2nc3ccccc3nc2Nc2ccc3ccccc3c2)cc1 | u | 3 | -4 | 16 | 0 | 3
O=C(O)c1ccc(Nc2nc3ccccc3nc2NS(=O)(=O)c2ccc(F)cc2)cc1 | 98* | 2 | -5 | 11 | -8 | 11
COc1ccc(NC(=O)C(Sc2ccccc2)c2ccccc2)c(OC)c1 (stereo unspecified) | -9 | 1 | 1 | 9 | -12 | -3

Record cards (already shown). Values in the order: ALR H2O2 inh | MC4R barr agon | HDAC3 inh | NALP1 yeast inh | UUG fidelity | MC4R antag cAMP
Shown for CCCNC(=O)N(C)C[C@H]1Oc2ncc(C#CC3(O)CCCC3)cc2C(=O)N([C@@H](C)CO)C[C@@H]1C = x | x | x | x | 3 | x
Shown for O=C(NC1CCC1)[C@@H]1[C@@H](CO)[C@@H]2Cn3c(ccc(-c4ccccc4)c3=O)[C@@H]2N1Cc1ccccn1 = x | x | x | x | 26 | x
Shown for COC(=O)c1ccccc1N=Nc1c(N)n[nH]c1N = 91* | 0 | 4 | 2 | x | -17
Shown for O=C(O)c1ccc(Nc2nc3ccccc3nc2NS(=O)(=O)c2ccc(F)cc2)cc1 = 98* | 2 | -5 | 11 | -8 | 11
Shown for Cc1noc(C)c1NC(=O)N[C@H]1C=C[C@@H](CC(=O)N2CCN(C)CC2)O[C@@H]1CO = x | x | x | x | -10 | x

Carrying on.
SMILES | ALR H2O2 inh | MC4R barr agon | HDAC3 inh | NALP1 yeast inh | UUG fidelity | MC4R antag cAMP
COc1ccccc1NC(=O)C(Sc1ccccc1)c1ccccc1 (stereo unspecified) | 84* | 0 | -2 | 15 | x | -1
CC(=O)Nc1ccc(S(=O)(=O)Nc2nc3ccccc3nc2Nc2ccc(C(=O)O)c(O)c2)cc1 | 98* | 0 | -2 | x | -6 | -2
CC(=O)Nc1ccc(S(=O)(=O)Nc2nc3ccccc3nc2Nc2ccc(N)cc2)cc1 | 100* | 0 | 4 | x | 2 | 15
CCCNC(=O)C[C@@H]1CC[C@H]2[C@H](COc3ccc(NC(=O)C4CCCC4)cc3C(=O)N2C)O1 | x | x | x | x | 11 | x
COCC(=O)N(C)C[C@H]1Oc2cc(C#CCC3CCCC3)ccc2S(=O)(=O)N([C@@H](C)CO)C[C@@H]1C | x | x | x | x | -2 | x
CC(C)CC#Cc1ccc2c(c1)O[C@@H](CN(C)Cc1ccc(C(=O)O)cc1)[C@H](C)CN([C@@H](C)CO)S2(=O)=O | x | x | x | x | 5 | x
CC(=O)Nc1ccc(NS(=O)(=O)c2ccccc2)cc1 | -8 | -5 | -1 | -4 | -6 | 5
CC(C)(C)NS(=O)(=O)c1ccc(NC(=O)C(Sc2ccccc2)c2ccccc2)cc1 (stereo unspecified) | -17 | 1 | 29* | 21 | -3 | 23
CC(=O)Nc1ccc(S(=O)(=O)Nc2ccc(Nc3ccccc3)cc2)cc1 | 99* | 1 | 9 | -2 | -4 | 26
CC(=O)Nc1ccc(S(=O)(=O)Nc2nc3ccccc3nc2Nc2cccc(O)c2)cc1 | 82* | -2 | -7 | 14 | x | 10
CC(=O)Nc1ccc(S(=O)(=O)Nc2nc3ccccc3nc2Sc2nncn2C)cc1 | 99* | -1 | 3 | 8 | -9 | 3
O=C(CN1CCOCC1)N1CC[C@@H]2[C@@H](CO)Nc3ccc(-c4ccc(F)cc4)cc3[C@@H]21 | x | x | x | x | -4 | x
C[C@H]1CCCCO[C@@H](CN(C)C(=O)CCCN(C)C)[C@@H](C)CN([C@@H](C)CO)C(=O)c2cc(NC(=O)c3ccccc3)ccc2O1 | x | x | x | x | 16 | x
CCSc1ccccc1C(=O)Nc1ccc(S(=O)(=O)NC(C)=O)cc1 | 96* | -3 | 4 | 14 | -5 | 3
CC(=O)Nc1ccc(S(=O)(=O)NC(C)c2ccncc2)cc1 (stereo unspecified) | -5 | -3 | -4 | x | 3 | 7
CC(=O)Nc1ccc(S(=O)(=O)NC(C)C(=O)NC(C)c2ccccc2)cc1 (stereo unspecified) | 99* | -1 | -3 | -13 | -17 | -7
CCOC(=O)C(=NCCCN1CCOCC1)NNc1cccc(C(F)(F)F)c1 | 98* | 2 | 7 | 9 | 6 | -1
CC(=O)Nc1ccc(NC2=C(Cl)C(=O)c3ccccc3C2=O)cc1 | x | x | x | 1 | x | x
Cc1ccc(NC2=C(NCCO)C(=O)c3ccccc3C2=O)cc1 | 100* | 2 | -2 | 24 | x | -9
COc1ccc(S(=O)(=O)N(C)C[C@@H]2Oc3ccc(NC(=O)C4CCCCC4)cc3C(=O)N([C@@H](C)CO)C[C@@H]2C)cc1 | x | x | x | x | 6 | x
COc1ccc(SCCc2ccncc2)cc1 | 93* | 1 | -4 | -3 | x | -7
CCOc1ccc(C(C)=O)cc1CN1c2ccc(S(N)(=O)=O)cc2CC1C (stereo unspecified) | 79* | -2 | 3 | 22 | -3 | 2
CCOc1ccc(C(C)=O)cc1CN1C(=O)NC(C)(C2CC2)C1=O (stereo unspecified) | 9 | -1 | 14 | -24 | -25 | 13
C[C@H](CO)N1C[C@H](C)[C@@H](CN(C)C(=O)NC2CCCCC2)Oc2ccc(NC(=O)Nc3ccc4c(c3)OCO4)cc2CC1=O | x | x | x | x | 22 | x
C=C(CN(C)C)C(=O)c1ccc2c(c1)OCO2 | x | -3 | x | x | x | 31*
O=C(C[C@@H]1C[C@@H]2c3cc(NC(=O)c4cccnc4)ccc3O[C@@H]2[C@H](CO)O1)NCc1ccncc1 | x | x | x | x | -3 | x
C(=C\c1nc(N2CCCC2)c2ccccc2n1)/c1ccccc1 | 10 | 6 | 4 | 64* | x | 7
c1ccc2nc(N3CCCC3)c(N3CCCC3)nc2c1 | 99* | 0 | -5 | -13 | -7 | 1
O=C(NC(=S)Nc1cccc2cc(O)ccc12)c1ccccc1Br | 45 | -4 | -5 | -4 | -14 | 18
O=C(NC(=S)Nc1cccc2cc(O)ccc12)c1ccco1 | 94* | -4 | 1 | -4 | -6 | -2
O=C(NC(=S)Nc1cccc2ncccc12)c1ccco1 | -27 | -1 | -6 | 4 | -23 | 13
O=C(NC(=S)Nc1cccc2c(O)cccc12)c1ccco1 | 99* | -4 | -2 | 10 | -20 | 15
CCCC(=O)NC(=S)Nc1cccc2c(O)cccc12 | 91* | 0 | 4 | 1 | -30 | 13
COc1ccc(S(=O)(=O)Nc2ccc3c(c2)[C@H]2C[C@@H](CC(=O)O)O[C@H](CO)[C@H]2O3)cc1 | x | x | x | x | -1 | x

Assay outcomes as filed in PubChem BioAssay.
